From patent publication US20110118202A1, “Molecules which Bind to the Dimerization Initiation Site (DIS) of HIV RNA, Their Synthesis and Their Applications as Drugs” (priority 2006, published 2011)

Assays:
[1] = system: subtype A DIS kissing-loop complex (23-mer RNA); experiment: Lead(II)-induced cleavage of the DIS loop, 23-mer RNA (footprinting); format: binding, HIV-1; conditions: FIG. 21
Description: Materials and Methods: Chemical footprinting experiments were performed on a 23-mer subtype A SL1 RNA or on RNA1-615, which corresponds to nucleotides 1-615 of HIV-1 Mal genomic RNA (Ennifar et al., J. Biol. Chem. 2003 278:2723-2730). Chemical modification was carried out either with dimethyl sulfate (DMS, Fluka) to test the accessibility of N1-A and N3-C positions or with lead acetate (Merck), which selectivity cleaves the subtype A DIS loop between the first and second nucleotides.
The binding of aminoglycosides to DIS can be detected through several biochemical methods: it induces protection toward chemical modification with dimethyl sulfate (DMS) or toward a specific cleavage in the subtype A promoted by lead (II); it also induces slower migration on non-denaturated gel.
At this stage, it was unclear if this class of compound is able to bind to the DIS kissing-loop complex. To compare binding of 4,5-disubstituted and 4,6-disubstituted DOS, a 23-mer RNA corresponding to the subtype A DIS, which was allowed to dimerize in conditions permitting crystallization of the kissing-loop complex, was used. As previously shown, lead (II) induced a specific cleavage in the subtype A DIS loop that is sensitive to the binding of aminoglycoside (FIG. 21).

[2] = system: subtype F kissing-loop complex; experiment: DMS footprinting, subtype F DIS in the context of RNA1-615; format: binding, HIV-1
[3] = system: subtype F DIS of HIV-1 genomic RNA; experiment: In situ DMS footprinting in infected CEMx174 cells and virions, subtype F DIS; conditions: infected cells and viral particles; 3 mM aminoglycoside in culture

NC[C@@H]1O[C@H](O[C@H]2[C@@H](O)[C@H](O[C@@H]3[C@@H](O)[C@H](N)C[C@H](N)[C@H]3O[C@H]3O[C@H](CO)[C@@H](O)[C@H](O)[C@H]3N)O[C@@H]2CO)[C@H](N)[C@@H](O)[C@@H]1O [paromomycin]
inhibition of lead-induced cleavage of the DIS loop, relative efficiency [1]: equally inhibited
binding to the subtype F kissing-loop complex by DMS footprinting [2]: efficiently bound
reduction of alkylation (DMS) of A280 of the subtype F DIS [3]: more than two-fold
